Literature values in patent US11034935B2, “Liver organoid, uses thereof and culture method for obtaining them” (Koninklijke Nederlandse Akademie van Wetenschappen, priority 2010, dated 2021).

Biological target: T1, ALK5 (TGF-β R1) (Homo sapiens, UniProt P36897)
T1 sequence (P36897 34-503): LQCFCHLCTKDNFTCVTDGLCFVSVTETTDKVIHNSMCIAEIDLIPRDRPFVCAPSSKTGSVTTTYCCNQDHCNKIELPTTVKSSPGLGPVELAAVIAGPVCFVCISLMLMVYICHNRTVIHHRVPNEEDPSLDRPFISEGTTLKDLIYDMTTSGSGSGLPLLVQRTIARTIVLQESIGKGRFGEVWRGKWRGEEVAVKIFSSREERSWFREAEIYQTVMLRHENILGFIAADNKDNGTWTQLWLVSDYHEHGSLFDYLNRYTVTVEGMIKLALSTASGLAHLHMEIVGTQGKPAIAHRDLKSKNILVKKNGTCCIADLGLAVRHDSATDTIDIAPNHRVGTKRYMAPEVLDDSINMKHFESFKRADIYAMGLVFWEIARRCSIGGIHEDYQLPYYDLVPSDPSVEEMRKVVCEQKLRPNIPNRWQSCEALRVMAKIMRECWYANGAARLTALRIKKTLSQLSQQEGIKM
Conditions: at high concentrations, approximate 10 uM or more; cited from earlier work

For `C[S+]([O-])c1ccc(-c2nc(-c3ccc(F)cc3)c(-c3ccncc3)[nH]2)cc1` (stereo not shown) [SB-203580], the “inhibition of ALK5” value is given as “thought to inhibit ALK5”.
